Bioassay records from PubChem.
Many of the other results were omitted from the sample, so hits are more common in it than they were.
GIV-Gai inh – inhibitors of GIV GBA-motif binding to rat Galpha-i3; P08753; Galpha-i3/FITC-GIV peptide fluorescence polarization, 90 min; stronger effect = lower value; scaled: aluminum fluoride 0%, vehicle 100%; percent of control (FP), % (test concentration not listed); 210,000 tested, 0.42% active; AID 1224905;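 active = replicate mean at 85% of control or lower, very high polarization wells dropped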;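 note: wells of about 15 µL received 100 nL stock; the first replicate is given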
HCMV UL50-53 inh – cytomegalovirus nuclear egress complex inhibition | HTRF UL50-UL53 interaction, normalized percent inhibition | AID 1918969 | inhibition, % (no concentration beside the values) | hit rate 0.15% among 190,000; in the data active = inhibition above about 27%, passing the limit was not always enough
GIV-Gai FP conf – confirmation of inhibitors of GIV binding to rat Galpha-i3; shares compounds with GIV-Gai inh; FITC-GIV peptide binding to Galphai3, fluorescence polarization; stronger effect = lower value; fluorescence polarization, mP at 100 µM; hit rate 38% among 580; AID 1259350;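 active = inhibition score of 15 or more, meaning 100 minus mean polarization as percent of control over three replicates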
GIV Gai AS conf – confirmation of inhibitors of GIV binding to human Galpha-i3; AlphaScreen counts at 100 µM; shares compounds with GIV-Gai inh; hit rate 39% among 580; AlphaScreen Galphai3-GIV binding, purified proteins, 90 min; stronger effect = lower value;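 active = inhibition score at or above a set limit, where the score is 100 minus the three-replicate mean percent of control signal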
Of the large screens only hits and unclear results are named; the others gave an inactive call (follow-up assays come after a bar, where they were run).

OCCN1CCN(C2=Cc3ccccc3C2)CC1	none
O=C(O)Cn1c2ccc(Cl)cc2c2nc3ccccc3nc21	none (no result: GIV-Gai inh)
O=C(O)Cn1c2c(c3ccccc31)CSc1ccc(Cl)cc1-2	none (no result: HCMV UL50-53 inh) | GIV-Gai FP conf inactive | GIV Gai AS conf 18488
COc1ccc(C2CC3(OCCO3)C3(CCCCC3)O2)cc1 (stereo not given)	none (no result: GIV-Gai inh)
CC(=O)N1CCCSc2ccc(S(=O)(=O)NCc3cccnc3)cc21	none
C=CCN1C(=O)S/C(=C/c2ccc(N3CCOCC3)cc2)C1=O	none | GIV-Gai FP conf inactive | GIV Gai AS conf inactive
O=C1S/C(=C\c2ccccc2)C(=O)N1CN1CCOCC1	none
O=C(NCCN1CCOCC1)C1=Cc2ccccc2OC1	none
CN1CCN(NC(=O)Cc2ccccc2Cl)CC1	none
O=C(Cc1ccccc1Cl)NC1(O)C(=O)c2ccccc2C1=O	GIV-Gai inh 70 | GIV-Gai FP conf inactive | GIV Gai AS conf inactive
O=C(Nc1ccccc1)n1ncc2ccccc21	none
COC(=O)N/N=C/c1cccc(OC)c1O	none (no result: GIV-Gai inh)
Cc1cc(OCc2nc(CC(=O)NC3CC3)cs2)ccc1Cl	none
Cc1cc(OCc2nc(CC(=O)NCC(C)C)cs2)ccc1Cl	none | GIV-Gai FP conf inactive | GIV Gai AS conf inactive
N#C/C(=C\c1c(Oc2ccccc2)nc2ccccn2c1=O)C(=O)NCc1ccco1	GIV-Gai inh 81 | GIV-Gai FP conf inactive | GIV Gai AS conf inactive
CCOc1ccc2ccccc2c1/C=C(\C#N)C(=O)NCc1ccco1	none
CCCNC(=O)c1ccc(CSc2nc3ccncc3[nH]2)cc1	none
COc1ccc2c(C)[nH]c(=O)cc2c1	none (no result: HCMV UL50-53 inh)
CCCc1[nH]c(=O)cc2cc(OC)c(OC)cc12	GIV-Gai inh 77 | GIV-Gai FP conf inactive | GIV Gai AS conf 23102
COc1ccc(C)cc1NC(=O)Nc1cccc(OCc2cc(=O)n3ccc(C)cc3n2)c1	none (no result: HCMV UL50-53 inh)
CCOC(=O)c1ccc(NC(=O)Nc2cccc(OCc3cc(=O)n4ccc(C)cc4n3)c2)cc1	GIV-Gai inh 85 (no result: HCMV UL50-53 inh) | GIV-Gai FP conf inactive | GIV Gai AS conf inactive
COc1ccccc1-c1nnc(NC(=O)CSCc2ccccc2)s1	none (no result: GIV-Gai inh)
CC1(C)CC2(CCCN(CCC(O)(c3ccccc3)c3ccccc3)C2)CCO1 (stereo not given)	none (no result: GIV-Gai inh)
CC1(C)CC2(CCCN(C(=S)Nc3ccccc3)C2)CCO1 (stereo not given)	none (no result: HCMV UL50-53 inh) | GIV-Gai FP conf inactive | GIV Gai AS conf inactive
COC(=O)c1cc2c(ccn2-c2ccc(F)cc2)n1Cc1ccccc1	none
O=C(COC(=O)C1CC(=O)N(Cc2ccco2)C1)c1ccc2ccccc2c1 (stereo not given)	none (no result: GIV-Gai inh)
O=c1c2ccccc2c2nc3c(=O)c4ccccc4c3nc12	none
O=c1c(=NO)c(=O)c2ccccc12	GIV-Gai inh 55 | GIV-Gai FP conf 47 | GIV Gai AS conf 13907
CC(=O)N1c2ccccc2N=C(c2ccc(Cl)cc2)CC1c1ccc([N+](=O)[O-])cc1 (stereo not given)	none (no result: HCMV UL50-53 inh)
CSc1nc(C)nc(Sc2ccccc2)c1C#N	none
N#Cc1c(Sc2ccccc2)ncc2cc3ccccc3nc12	GIV-Gai inh 79 | GIV-Gai FP conf inactive | GIV Gai AS conf inactive
CCCC(=O)Nc1ccc2[nH]c(=O)[nH]c2c1	none (no result: GIV-Gai inh)
CC(=O)Nc1ccc2nc3c(=O)[nH]c(=O)[nH]c3nc2c1	GIV-Gai inh 66 | GIV-Gai FP conf 58 | GIV Gai AS conf 5170
CC(=O)Nc1ccc2sc(C)nc2c1	none
CCCCCCC(=O)Nc1ccc2nc3c(=O)[nH]c(=O)[nH]c3nc2c1	GIV-Gai inh 83 | GIV-Gai FP conf 44 | GIV Gai AS conf 16182
Cc1cc(C(=O)Nc2ccc(Cl)cc2)c(C(F)(F)F)o1	none
Cc1c2c(n3c(nc4ccccc43)c1C#N)N(CCN1CCOCC1)CC2	none | GIV-Gai FP conf inactive | GIV Gai AS conf inactive
Cc1c2c(n3c(nc4ccccc43)c1C#N)N(C1CCCC1)CC2	none
COc1ccc(C2N(c3ccccc3)OC(=O)N2c2ccccc2)cc1 (stereo not given)	none (no result: HCMV UL50-53 inh)
COc1ccc(C2=CC(=O)N(c3ccccc3)C(c3ccccc3)O2)cc1 (stereo not given)	none (no result: HCMV UL50-53 inh) | GIV-Gai FP conf inactive | GIV Gai AS conf inactive
Cc1cc(C(F)(F)F)c2c(N)c(C(=O)Nc3cccc(C(F)(F)F)c3)sc2n1	GIV-Gai inh 82 (no result: HCMV UL50-53 inh) | GIV-Gai FP conf inactive | GIV Gai AS conf inactive
CCc1nc2sc(C(=O)Nc3cccc(C(F)(F)F)c3)c(N)c2cc1C	none (no result: HCMV UL50-53 inh)
COc1ccc(C(=O)c2sc3nc(C)cc(C(F)(F)F)c3c2N)cc1OC	GIV-Gai inh 62 (no result: HCMV UL50-53 inh) | GIV-Gai FP conf inactive | GIV Gai AS conf inactive
COC(=O)c1sc2nc(C)cc(C(F)(F)F)c2c1N	none (no result: GIV-Gai inh)
Cc1ccc(-c2cc(C(F)F)nc(NC3CCCCC3)n2)cc1	none
Cc1ccc2c(c1Br)C1(C(=O)N2)C(C#N)=C(N)Oc2n[nH]c(C(C)C)c21 (stereo not given)	none (no result: HCMV UL50-53 inh)
